# Permeability data for macrocyclic peptides

Values of Furukawa et al. 2016, doi:10.1021/acs.jmedchem.6b01246, as listed in CycPeptMPDB.

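The data file gives no further conditions (lipid, pH, time, direction or concentration), and values from different papers need not be comparable. The list need not hold all peptides of the study. Peptides that the database sets to -10, its floor, are left out.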

PAMPA is the parallel artificial membrane permeability assay, which has no cells and reads passive diffusion.
Values are log10 P with P in cm/s, so -5 is more permeable than -7.

For CCCC[C@@H]1NC(=O)[C@H](CC(C)C)N(C)C(=O)CN(Cc2ccccc2)C(=O)[C@H](Cc2ccc3ccccc3c2)NC(=O)CN(CC)C(=O)[C@H]2CCCN2C1=O the data give PAMPA -6.08 (log10 cm/s). CCCCCN1CC(=O)N(C)[C@@H](CC(C)C)C(=O)N[C@@H](CCCC)C(=O)N2CCC[C@@H]2C(=O)N(CC(C)C)CC(=O)N[C@@H](Cc2ccc3ccccc3c2)C1=O has PAMPA -8.59 (log10 cm/s). CCCC[C@@H]1NC(=O)[C@H](CC(C)C)N(C)C(=O)CN(CCCc2ccccc2)C(=O)[C@H](Cc2ccccc2)NC(=O)CN(CCN2CCOCC2)C(=O)[C@H]2CCCN2C1=O is reported with PAMPA -5.49 (log10 cm/s). CCCC[C@@H]1NC(=O)[C@H](CC(C)C)N(C)C(=O)CN(CCCc2ccccc2)C(=O)[C@H](Cc2ccccc2)NC(=O)CN(Cc2ccc(Cl)cc2)C(=O)[C@H]2CCCN2C1=O has PAMPA -8.47 (log10 cm/s). For CCCC[C@@H]1NC(=O)[C@H](CC(C)C)N(C)C(=O)CN(CCCc2ccccc2)C(=O)[C@H](Cc2ccccc2)NC(=O)CN(CC)C(=O)[C@H]2CCCN2C1=O the data give PAMPA -5.38 (log10 cm/s).

The entry for CCCC[C@@H]1NC(=O)[C@H](CC(C)C)N(C)C(=O)CN(Cc2ccccc2)C(=O)[C@H](C)NC(=O)CN(CCN2CCOCC2)C(=O)[C@H]2CCCN2C1=O lists PAMPA -6.49 (log10 cm/s). Listed for CCCC[C@@H]1NC(=O)[C@H](CC(C)C)N(C)C(=O)CN(CCc2cccnc2)C(=O)[C@H](Cc2ccc3ccccc3c2)NC(=O)CN(CC)C(=O)[C@H]2CCCN2C1=O: PAMPA -5.51 (log10 cm/s). Listed for CCCC[C@@H]1NC(=O)[C@H](CC(C)C)N(C)C(=O)CN(Cc2ccccc2)C(=O)[C@H](CC(C)C)NC(=O)CN(Cc2ccccc2Cn2cccn2)C(=O)[C@H]2CCCN2C1=O: PAMPA -5.66 (log10 cm/s). The entry for CCCC[C@@H]1NC(=O)[C@H](CC(C)C)N(C)C(=O)CN(CCOC)C(=O)[C@H](CC(C)C)NC(=O)CN(Cc2cc(CC(C)C)on2)C(=O)[C@H]2CCCN2C1=O lists PAMPA -5.11 (log10 cm/s). The entry for CCCC[C@@H]1NC(=O)[C@H](CC(C)C)N(C)C(=O)CN(CCc2cccnc2)C(=O)[C@H](CC(C)C)NC(=O)CN(CC)C(=O)[C@H]2CCCN2C1=O lists PAMPA -6.14 (log10 cm/s).

CCCC[C@@H]1NC(=O)[C@H](CC(C)C)N(C)C(=O)CN(Cc2ccccc2)C(=O)[C@H](C)NC(=O)CN(Cc2ccccc2Cn2cccn2)C(=O)[C@H]2CCCN2C1=O is reported with PAMPA -5.26 (log10 cm/s). Listed for CCCC[C@@H]1NC(=O)[C@H](CC(C)C)N(C)C(=O)CN(CC2CCOCC2)C(=O)[C@H](CC(C)C)NC(=O)CN(Cc2cc(CC(C)C)on2)C(=O)[C@H]2CCCN2C1=O: PAMPA -5.05 (log10 cm/s). Listed for CCCC[C@@H]1NC(=O)[C@H](CC(C)C)N(C)C(=O)CN(CCCc2ccccc2)C(=O)[C@H](CC(C)C)NC(=O)CN(Cc2ccc3c(c2)OCO3)C(=O)[C@H]2CCCN2C1=O: PAMPA -7.44 (log10 cm/s). For CCCC[C@@H]1NC(=O)[C@H](CC(C)C)N(C)C(=O)CN(CC2CCOCC2)C(=O)[C@H](Cc2ccccc2)NC(=O)CN(CCCCc2ccccc2)C(=O)[C@H]2CCCN2C1=O the data give PAMPA -5.83 (log10 cm/s). Listed for CCCC[C@@H]1NC(=O)[C@H](CC(C)C)N(C)C(=O)CN(CCc2cccnc2)C(=O)[C@H](Cc2ccccc2)NC(=O)CN(CC)C(=O)[C@H]2CCCN2C1=O: PAMPA -5.87 (log10 cm/s).

CCCC[C@@H]1NC(=O)[C@H](CC(C)C)N(C)C(=O)CN(CCCN2CCCC2=O)C(=O)[C@H](CC(C)C)NC(=O)CN(CC)C(=O)[C@H]2CCCN2C1=O is reported with PAMPA -7.02 (log10 cm/s).